Measurements from ChEMBL document CHEMBL5532642, “Targeting protein kinases for the treatment of Alzheimer's disease: Recent progress and future perspectives” (Eur J Med Chem, 2023).
pIC50: −log10 of the molar value.

Sequences of proteins named here, by UniProt entry; tags and fusion partners are left off. A change or cut given only in a name is not applied to a line headed by its entry.
UniProt P28482, whole entry: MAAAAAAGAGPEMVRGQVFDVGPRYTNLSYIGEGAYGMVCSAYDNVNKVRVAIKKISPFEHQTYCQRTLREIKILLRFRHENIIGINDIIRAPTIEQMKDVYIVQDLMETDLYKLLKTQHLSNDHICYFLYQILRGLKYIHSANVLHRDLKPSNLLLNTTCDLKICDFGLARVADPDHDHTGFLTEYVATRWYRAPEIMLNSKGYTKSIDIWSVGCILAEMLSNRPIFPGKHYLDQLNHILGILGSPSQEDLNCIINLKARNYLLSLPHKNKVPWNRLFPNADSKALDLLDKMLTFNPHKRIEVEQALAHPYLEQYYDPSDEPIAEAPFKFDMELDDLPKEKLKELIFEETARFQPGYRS
UniProt P27361, whole entry: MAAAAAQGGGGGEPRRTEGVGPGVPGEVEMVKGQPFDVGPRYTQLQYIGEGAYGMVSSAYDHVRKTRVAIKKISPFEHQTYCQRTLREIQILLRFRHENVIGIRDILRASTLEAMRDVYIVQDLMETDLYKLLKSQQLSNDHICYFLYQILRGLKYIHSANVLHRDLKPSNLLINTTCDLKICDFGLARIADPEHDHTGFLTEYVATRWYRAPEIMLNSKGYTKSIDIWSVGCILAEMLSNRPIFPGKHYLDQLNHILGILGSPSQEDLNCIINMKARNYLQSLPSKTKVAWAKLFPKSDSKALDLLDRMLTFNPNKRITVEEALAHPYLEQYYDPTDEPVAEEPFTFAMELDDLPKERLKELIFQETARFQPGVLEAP
UniProt P53779: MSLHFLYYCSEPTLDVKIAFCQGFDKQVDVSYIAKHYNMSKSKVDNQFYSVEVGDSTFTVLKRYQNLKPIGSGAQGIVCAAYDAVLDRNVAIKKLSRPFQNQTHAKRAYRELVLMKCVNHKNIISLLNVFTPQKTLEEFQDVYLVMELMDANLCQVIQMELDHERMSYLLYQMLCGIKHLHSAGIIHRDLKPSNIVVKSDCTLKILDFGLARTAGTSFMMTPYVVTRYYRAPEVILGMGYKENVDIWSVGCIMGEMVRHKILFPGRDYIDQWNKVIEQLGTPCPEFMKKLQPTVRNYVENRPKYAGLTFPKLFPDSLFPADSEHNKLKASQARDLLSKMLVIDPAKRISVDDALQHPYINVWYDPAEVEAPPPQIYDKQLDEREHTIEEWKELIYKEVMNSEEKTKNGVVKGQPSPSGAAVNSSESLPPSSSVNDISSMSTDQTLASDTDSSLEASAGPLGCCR
UniProt P45984: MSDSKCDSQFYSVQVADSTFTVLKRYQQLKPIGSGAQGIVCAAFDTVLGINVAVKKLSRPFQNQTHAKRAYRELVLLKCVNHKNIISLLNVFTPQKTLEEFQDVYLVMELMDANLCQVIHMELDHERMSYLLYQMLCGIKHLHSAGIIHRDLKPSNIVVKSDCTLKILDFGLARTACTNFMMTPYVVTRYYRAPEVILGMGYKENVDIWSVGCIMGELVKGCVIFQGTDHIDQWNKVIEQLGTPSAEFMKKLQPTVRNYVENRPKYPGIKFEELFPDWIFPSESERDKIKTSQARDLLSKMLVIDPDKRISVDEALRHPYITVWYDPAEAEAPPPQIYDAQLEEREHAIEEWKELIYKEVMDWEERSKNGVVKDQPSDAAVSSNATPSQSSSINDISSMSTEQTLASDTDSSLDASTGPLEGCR

Columns and labels:
[1] = target: Mitogen-activated protein kinase 1 (Homo sapiens, UniProt P28482); test: Inhibition of human recombinant ERK2
[2] = target: Mitogen-activated protein kinase 3 (Homo sapiens, UniProt P27361); test: Inhibition of human recombinant ERK1
[3] = target: Mitogen-activated protein kinase 10 (Homo sapiens, UniProt P53779); test: Inhibition of JNK3 (unknown origin)
[4] = target: Mitogen-activated protein kinase 9 (Homo sapiens, UniProt P45984); test: Inhibition of JNK2 (unknown origin) by HotSpot assay

| pIC50 [3] | pIC50 [4] | Structure (SMILES) | pIC50 [1] | pIC50 [2] |
| --- | --- | --- | --- | --- |
| – | – | Nc1n[nH]c2nnc(-c3c(-c4ccccc4)nn4ccccc34)cc12 | 6.48 | 6.29 |
| 8.57 | 6.65 | NC(=O)N1Cc2nc(-c3ccc(Cl)c(Cl)c3)n(-c3ccnc(NC4CCN(C(=O)C5CC5)C4)n3)c2C1 (centres undefined) | – | – |
